Assay results published in article PMC5524698, “A cell-based, quantitative and isoform-specific assay for exchange proteins directly activated by cAMP” (Scientific Reports, 2017).
Read-outs that look alike come from different tables or passages of the source.

Biological target: T1, EPAC2 (Mus musculus, UniProt Q9EQZ6)
T1 construct: HEK293 cell lines stably expressing Flag-tagged Rap1A and full-length EPAC1 or EPAC2 are proposed; expressed in transfected cells
T1 sequence (Q9EQZ6 1-1011): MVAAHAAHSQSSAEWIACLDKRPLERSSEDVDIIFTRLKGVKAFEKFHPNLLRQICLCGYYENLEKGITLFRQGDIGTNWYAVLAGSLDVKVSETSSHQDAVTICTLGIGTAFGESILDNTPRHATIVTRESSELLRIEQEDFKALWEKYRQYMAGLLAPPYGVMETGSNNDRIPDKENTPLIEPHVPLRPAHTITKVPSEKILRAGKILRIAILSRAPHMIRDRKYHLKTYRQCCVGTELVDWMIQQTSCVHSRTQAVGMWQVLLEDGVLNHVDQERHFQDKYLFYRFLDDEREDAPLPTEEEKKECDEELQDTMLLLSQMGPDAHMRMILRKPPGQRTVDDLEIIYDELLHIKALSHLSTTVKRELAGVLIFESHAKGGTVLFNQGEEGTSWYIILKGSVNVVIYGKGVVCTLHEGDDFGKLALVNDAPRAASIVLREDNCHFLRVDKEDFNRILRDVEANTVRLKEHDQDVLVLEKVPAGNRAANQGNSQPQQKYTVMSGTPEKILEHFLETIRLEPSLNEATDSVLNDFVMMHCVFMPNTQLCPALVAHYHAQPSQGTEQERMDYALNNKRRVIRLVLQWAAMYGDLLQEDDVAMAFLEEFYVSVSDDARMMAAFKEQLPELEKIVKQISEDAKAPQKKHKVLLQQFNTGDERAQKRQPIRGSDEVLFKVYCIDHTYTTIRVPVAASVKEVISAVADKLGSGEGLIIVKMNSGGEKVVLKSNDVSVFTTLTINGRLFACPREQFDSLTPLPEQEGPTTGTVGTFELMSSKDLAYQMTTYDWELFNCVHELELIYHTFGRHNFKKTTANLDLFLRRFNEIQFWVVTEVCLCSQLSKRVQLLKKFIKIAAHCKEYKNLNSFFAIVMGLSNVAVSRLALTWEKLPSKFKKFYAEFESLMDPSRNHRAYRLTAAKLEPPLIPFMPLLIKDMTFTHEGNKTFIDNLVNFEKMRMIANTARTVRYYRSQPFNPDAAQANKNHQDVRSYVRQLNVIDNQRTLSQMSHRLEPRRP
Test: Cellular Rap1 assay (ELISA for Rap1-GTP) in HEK293/mEPAC2/Flag-Rap1 cells
Format: cell-based
Source text: To develop a cell-based, isoform-specific EPAC activation assay, HEK293 cell lines stably expressing Flag-tagged Rap1A and full-length EPAC1 or EPAC2 are proposed. HEK293 cells express minimal endogenous levels of EPAC1 and EPAC2 and have been used as host cells for evaluating the cellular activities of ectopically expressed EPAC proteins in an isoform-specific manner. Activation of EPAC1 or EPAC2 in these cell lines by cAMP elevating agents leads to the accumulation of Flag-Rap1-GTP, which can be captured by RalGDS-RBD immobilized in a nickel-coated 96-well microplate. The levels of active Flag-Rap1-GTP protein can be quantitatively monitored using a specific anti-FLAG antibody and a HRP conjugated secondary antibody in a manner similar to that of a conventional ELISA assay (Fig. 1). […]
HEK293 cells co-expressing hEPAC1/Flag-tagged hRap1A or mEPAC2/Flag-tagged hRap1A were seeded in 12-well plates (Corning #3513) at an initial confluency of 400,000 cell/well and incubate at 37 °C, 5% CO2, in MEM medium with 10% FBS, for 24 hours. […] Cell extracts were clarified by centrifugation at 18,000 RCF for 20 min and their protein concentrations were determined by DC protein assay kit. […] 200 µl of OPD substrate was added into each well and absorbance signal at 450 nm was monitored using an M2 microplate reader (Molecular Devices) for 30 min with 1-min intervals. […]

Q: Which results are given for Cc1ccc(S(=O)(=O)c2c(C)cc(C)cc2C)cc1 [ESI-05]?
A: IC50 (basal (unstimulated) HEK293/mEPAC2/Flag-Rap1 cells, read-out: IC50, inhibition of basal EPAC2 activity): 1200 ± 400 nM; IC50 (stimulated by 1 µM forskolin, pretreatment, HEK293/mEPAC2/Flag-Rap1 cells, read-out: apparent IC50, inhibition of cellular EPAC2 activity): 621 ± 154 nM
